This note sets out measurements from patent publication US8153609B2 (priority 2004, dated 2012).

Read-outs that look alike come from different tables or passages of the source.

Assay [1] has as its target T1, PKA type Iα (RIα/Cα) holoenzyme (Homo sapiens, UniProt P10644). Briefly: Cook coupled spectrophotometric kinase assay, suppression (antagonist) assay, PKA type Iα. To be noted: for Antagonist: Table 1 (Example 83), PKA type Iα; for relative potency*: antagonists relative to Rp-8Br-cAMPS. The assay is classed as biochemical.
The target of assay [2] is T1, PKA type Iα (RIα/Cα) holoenzyme. Briefly: Cook assay, activation (agonist) assay, RIα holoenzyme. The assay is classed as biochemical. Conditions: Table 1 (Example 83), activation screen 10 μM analog.
Assay [3] concerns the target T2, PKA type IIα (RIIα holoenzyme) (Homo sapiens, UniProt P13861). Briefly: Cook kinase assay, suppression assay, PKA type IIα. Type of assay: biochemical.
In another assay the target is PKA type Iα (holo RIα) (Homo sapiens, UniProt P10644). Briefly: Biacore surface competition ligand binding assay, holo RIα.
In assay [4] the target is T2, PKA type IIα (RIIα holoenzyme). Briefly: Cook assay, activation of Holo RIIα. To be noted: Table 2, Holo RIIa.
For a further assay, the target named is holo RIIα (Homo sapiens, UniProt P13861). Briefly: Biacore surface competition ligand binding assay, holo RIIα. To be noted: read-out: holo RIIa Biacore. A general note: SPR reads the build-up and loss of mass on a sensor chip optically.
In assay [5] the test system is Human peripheral T lymphocytes. Briefly: T lymphocyte proliferation assay (anti-CD3 activated, [3H]thymidine). To be noted: Ex vivo testing in T lymphocytes; for Antagonist properties: in presence of agonist Sp-8-Br-cAMPS; for relative potency*: reference compounds = 1.00.
The mark [6] stands for this setting: read-out: half-maximal antagonistic effect (IC50 or EC50), reversal of Sp-8-Br-cAMP-mediated PKA activation, 1 μM Sp-8-Br-cAMPS, 10 nM RIα holoenzyme.
Where [7] appears, read: excess of antagonist 10 μM, 10 nM holo RIα.

In assay [1] (PKA type Iα enzymatic activity, relative to the known Rp-8-Br-cAMPS), `Nc1ncnc2c1nc(Br)n2[C@@H]1O[C@@H]2CO[P@@](=O)(S)O[C@H]2[C@H]1O` yielded a Potency of 1.00. The Antagonist entry is given as “yes” in assay [1] and “yes” in assay [3] (Table 2, Holo RIIa). Besides, the “relative potency*” value in assay [1] and in assay [5] was 1.00 in each case. Also, the IC50 came to 1350 nM in assay [1] (read-out: half-maximal antagonistic effect (IC50 or EC50), average in several experiments, average, n=3); 1200 nM in assay [1] (setting [6]); 1300 nM in assay [1] (read-out: holo RIa Cook, Table 3); 14900 nM in assay [3] (read-out: half-maximal antagonistic effect (IC50 or EC50), reversal of Sp-8-Br-cAMP-mediated PKA type II activation, 1 μM Sp-8-Br cAMPS, 10 nM RIIα holoenzyme). For the same compound, the Agonist result in assay [2] and in assay [4] was “no” each time. In assay [3] (% antagonist effect with 1 μM Sp-8Br-cAMPS at 250 μM of Rp-cAMPS analog), the “relative inhibition*” value was 79%. Moreover, the “EC50RII/EC50RI***” value in assay [3] (Selectivity for PKA type I (EC50 PKA type II/EC50 PKA type I)) was 12. Moreover, the “relative potency**” value in assay [3] (antagonists relative to Rp-8-Br-cAMPS, Holo RIIa) is recorded as 1.00. Also, the EC50 was 2600 nM on PKA type Iα (holo RIα) (Rp-8-AHA cAMPS surface, 10 nM holo RIα); 2900 nM at PKA type Iα (holo RIα) (Rp-8-AHA cAMPS surface, 10 nM holo RIα, listed as Rp-8-Br cAMPS); 2400 nM on PKA type Iα (holo RIα) (read-out: holo RIa Biacore, Table 3, 2 nM holo); 21200 nM on holo RIIα (8-AHA surface); 10800 nM at holo RIIα (Rp-8-AHA surface). For the same compound, the “binding to 8-AHA cAMP surface” value at PKA type Iα (holo RIα) (any concentration of antagonist, 10 nM holo RIα) was “not affected”. Besides, the “binding of holo complex at the Rp-8-AHA cAMPS surface” value on PKA type Iα (holo RIα) (setting [7]) is on record as “completely blocked”. Besides, the “effect in binding to the 8-AHA cAMP surface” value on PKA type Iα (holo RIα) (setting [7]) is “no effect”. Moreover, in assay [5], the Agonist properties result is “No”. Besides, the Antagonist properties result in assay [5] is “Yes”.
As for `Cc1nc2c(N)ncnc2n1[C@@H]1O[C@@H]2CO[P@@](=O)(S)O[C@H]2[C@H]1O`, in assay [1], the Antagonist entry is reported as “yes” and the “relative potency*” value is on record as 0.16. Moreover, in assay [2], the Agonist entry was “no”. In assay [5], the Agonist properties result is given as “No”, the Antagonist properties result is listed as “Yes” and the “relative potency*” value was found to be 0.69.
In the case of `C=C(OCC)c1nc2c(N)ncnc2n1[C@@H]1O[C@@H]2CO[P@@](=O)(S)O[C@H]2[C@H]1O`, in assay [1], the Antagonist entry is “yes” and the “relative potency*” value was determined as 0.56. Also, the IC50 in assay [1] (setting [6]) was 2400 nM. The Agonist entry in assay [2] was “no”. In assay [5], the Agonist properties entry is listed as “No”, the Antagonist properties result is “Yes” and the “relative potency*” value stood at 0.26.
